Data as given in ChEMBL document CHEMBL4808172, “Structure-Activity Relationship of Heterocyclic P2Y14 Receptor Antagonists: Removal of the Zwitterionic Character with Piperidine Bioisosteres” (J Med Chem, 2021).

Amino acid sequences for entries named in this document (tags omitted). A change or cut given only in a name is not applied to a line headed by its entry.
UniProt Q12809: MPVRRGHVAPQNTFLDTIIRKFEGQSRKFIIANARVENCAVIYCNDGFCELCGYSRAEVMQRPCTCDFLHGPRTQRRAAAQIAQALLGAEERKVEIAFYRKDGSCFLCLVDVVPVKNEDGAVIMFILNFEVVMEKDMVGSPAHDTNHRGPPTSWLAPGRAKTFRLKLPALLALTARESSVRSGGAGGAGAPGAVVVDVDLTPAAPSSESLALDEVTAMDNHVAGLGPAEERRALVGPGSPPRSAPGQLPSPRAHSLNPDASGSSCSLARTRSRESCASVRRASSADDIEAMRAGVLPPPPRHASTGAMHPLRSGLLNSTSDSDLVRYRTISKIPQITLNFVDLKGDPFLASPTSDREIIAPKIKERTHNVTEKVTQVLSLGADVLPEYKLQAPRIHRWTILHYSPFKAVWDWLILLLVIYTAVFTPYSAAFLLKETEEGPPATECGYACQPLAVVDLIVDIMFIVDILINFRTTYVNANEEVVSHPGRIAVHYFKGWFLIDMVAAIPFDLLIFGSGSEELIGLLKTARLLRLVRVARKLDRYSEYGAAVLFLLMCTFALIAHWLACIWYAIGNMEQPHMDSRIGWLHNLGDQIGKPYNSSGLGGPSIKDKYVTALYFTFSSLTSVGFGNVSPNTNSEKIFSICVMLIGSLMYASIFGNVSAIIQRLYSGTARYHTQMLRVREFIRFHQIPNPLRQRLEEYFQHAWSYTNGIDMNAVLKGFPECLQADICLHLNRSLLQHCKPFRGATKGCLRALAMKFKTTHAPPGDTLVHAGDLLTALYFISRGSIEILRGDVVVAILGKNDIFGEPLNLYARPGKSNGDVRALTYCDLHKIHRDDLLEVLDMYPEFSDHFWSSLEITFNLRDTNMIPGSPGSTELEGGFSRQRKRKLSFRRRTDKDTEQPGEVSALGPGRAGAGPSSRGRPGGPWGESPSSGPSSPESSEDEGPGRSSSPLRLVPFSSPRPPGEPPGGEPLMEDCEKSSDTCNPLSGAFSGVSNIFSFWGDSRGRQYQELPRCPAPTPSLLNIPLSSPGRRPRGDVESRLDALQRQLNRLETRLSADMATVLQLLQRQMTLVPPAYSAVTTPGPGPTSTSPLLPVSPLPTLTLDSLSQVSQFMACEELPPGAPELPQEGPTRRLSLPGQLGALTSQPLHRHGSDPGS

Target: Voltage-gated inwardly rectifying potassium channel KCNH2 (Homo sapiens, UniProt Q12809)

## CC(=O)N1CCC(c2ccc(-c3cc(C(=O)O)cc4cc(-c5ccc(C(F)(F)F)cc5)ccc34)cc2)CC1
  EC50: 16 µM
